# Yeast mating assay B: variants of the scFv Ab-14

Reference: Li et al. 2023, doi:10.1038/s41467-023-39022-2. File: FLAb, binding data.

Target: peptide PDVDLGDISGINAS, taken from heptad repeat 2 (HR2) of SARS-CoV-2 spike.

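The parent was found by panning a naive human phage display library on the peptide. These sequences belong to a second round, designed from the earlier measurements on random variants of the parent. Several design methods are mixed in this list. The assay is AlphaSeq: two haploid yeast populations carry antibody and antigen on their surface. Mating (16 h, 30 °C) was followed by selection of diploids and sequencing of their barcodes. The ratio of observed to expected reads was calibrated, replicate by replicate, on BCL2-family standards whose Kd was known from biolayer interferometry. There are six technical replicates.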

Parent scFv Ab-14: VH joined to VL by three GGGGS repeats. Changes lie in the light chain CDRs alone.
VH: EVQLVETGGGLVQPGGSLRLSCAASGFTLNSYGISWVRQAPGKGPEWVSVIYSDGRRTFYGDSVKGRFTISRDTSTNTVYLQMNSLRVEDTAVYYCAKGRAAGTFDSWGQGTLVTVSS
VL: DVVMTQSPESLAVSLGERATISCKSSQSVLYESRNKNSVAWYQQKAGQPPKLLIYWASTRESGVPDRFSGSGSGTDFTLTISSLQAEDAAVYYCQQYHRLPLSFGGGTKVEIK

Each variant is given by its three light chain CDRs, as the data file delimits them; those of the parent are KSSQSVLYESRNKNSVA, WASTRES, QQYHRLPLS. Values are apparent Kd, the geometric mean of the replicates that gave a signal; lower means stronger binding. "no signal" means that the variant was in the library but no mating with the target was seen in any replicate; the authors take this as a sign of poor binding, and no number exists.

| CDR-L1 | CDR-L2 | CDR-L3 | apparent Kd | seen in | control signals |
|---|---|---|---|---|---|
| KVSQSHLYESRNKNSVA | EASQRES | QQYHRLPLS | 680 pM | 6 of 6 | 0 of 18 |
| KLAMYLEMNARTIHAIA | EANLKPS | QQYNRLPIS | 350 nM | 2 of 6 | 2 of 18 |
| KLRQSMLYESRNKNSVA | YASTRES | QQYHRLPLS | 2.5 nM | 6 of 6 | 1 of 18 |
| KLSQSHEYESRNKNSVA | NASTRLS | QQYHRLPLS | 540 pM | 6 of 6 | 0 of 18 |
| KVSQSGLYESRNKNSVA | EASTRES | QQYHRLPLS | 11 nM | 6 of 6 | 0 of 18 |
| KWSQSWLMESLNSASVA | HASQRES | QQYHRLPLS | 17 nM | 5 of 6 | 0 of 18 |
| KLEQSQLYESRNKNSVA | NASTRYS | QQYHRLPLS | 1.2 nM | 6 of 6 | 1 of 18 |
| KSSQSVLGESRNKNSVA | QASTRES | QQYWRLPLS | 970 pM | 6 of 6 | 0 of 18 |
| KMSISELYEDRNQNSVA | SASQRLE | QQYHRLPLS | 4.0 nM | 6 of 6 | 0 of 18 |
| KSSQSVLYEYRNKNSVA | WASTRIS | QQYHRSPLS | no signal | 0 of 6 | 0 of 18 |
| KLSQSVLYESRNWNSVA | NASTREQ | QQYHRLPLS | 390 pM | 6 of 6 | 1 of 18 |
| MISQLMNMGQFAINSVA | QASERSE | QQYDRLPLT | 37 nM | 3 of 6 | 0 of 18 |
| KVMQSHWGESRNKNSVA | HASLREV | QQYHRLPLS | 7.7 nM | 6 of 6 | 2 of 18 |
| KSSQSVLYESRNKNSVA | YASTNES | QQYHKLPLS | no signal | 0 of 6 | 0 of 18 |
| MLSDTVMQGSYSRNSVA | QESTRAD | QQYHHLPLS | 2.7 nM | 6 of 6 | 0 of 18 |
| SFDLTKSGMENEQYSIA | ERNELMT | QDYHRLPLA | no signal | 0 of 6 | 1 of 18 |
| KMQQSELMESRNMNSVA | HASKRES | QDYHRLPLS | 3.9 nM | 6 of 6 | 2 of 18 |
| HITYGMMVHGRHSSSIA | QAETRAK | QQYDRLPLA | 550 nM | 6 of 6 | 0 of 18 |
| KLSQSFLYESRNKNSVA | NASTRES | QQYHRLPLS | 430 pM | 6 of 6 | 2 of 18 |
| KSSQSVLYESTNKNSVA | WASTREP | QTYHRLPLS | 150 nM | 4 of 6 | 4 of 18 |
| SLSQSTHIESFNKNNVA | EMTTRES | QSYDRLPLS | 44 nM | 5 of 6 | 1 of 18 |
| KSSQSVLYESRSKNSVA | WASTRES | QQYHRLPLS | 220 nM | 3 of 6 | 0 of 18 |
| KLVNFMNRGTHHTSNIA | DAQNRSD | QQYYRLPLA | 1.3 nM | 6 of 6 | 1 of 18 |
| MISQLTNMGTFAINSVA | QASLRNE | QQYDRLPLM | 81 nM | 6 of 6 | 0 of 18 |
| KIGGVTNGISRSKNSVA | EQNTRED | QQYDRLPLS | 9.1 nM | 6 of 6 | 1 of 18 |
| KLSDPTVEWIANQSAVA | EHADTVH | QQYARLPLT | 500 nM | 3 of 6 | 1 of 18 |
| KSSQSVLYESRNKNSVA | QATTRES | QQYHRLPLS | 2.7 nM | 6 of 6 | 0 of 18 |
| KLPQSWLYESQNSNSVA | HASQRME | QQYHRLPLS | 850 pM | 6 of 6 | 1 of 18 |
| FLAMALDQDGLIKNNIA | QDNLLEN | QQYERLPLG | no signal | 0 of 6 | 0 of 18 |

Further variants, results first:

| apparent Kd | seen in | control signals | CDR-L1 | CDR-L2 | CDR-L3 |
|---|---|---|---|---|---|
| 510 pM | 6 of 6 | 0 of 18 | KVSFSYLMESRNKNSVA | EASTRES | QQYHRLPLS |
| 6.6 nM | 30 of 30 | 2 of 90 | KISQPVLYESRNKNSIA | KATTRES | QQYHRLPLV |
| 2.0 nM | 6 of 6 | 1 of 18 | KSSQSMLYESRNKNSVA | SASTRES | QQYHRLPLS |
| 550 pM | 6 of 6 | 1 of 18 | KISQSELYEDRNKNSVA | NASQRES | QQYHRLPLS |
| 190 nM | 6 of 6 | 3 of 18 | MIYGAQRELGLAANSIA | DNVTRYD | QQYHRLPLS |
| 460 pM | 6 of 6 | 0 of 18 | KISGMYQKESKNKNSVA | EMVNRMS | QQYDRLPLS |
| no signal | 0 of 6 | 0 of 18 | KSEQSVLYESRNKNSEA | RASTRES | QQYHRLPLS |
| 560 pM | 6 of 6 | 0 of 18 | KLSTSDLYESRNVNAVA | EASTRMD | QQYHRLPLS |
| 11 nM | 6 of 6 | 1 of 18 | TISQSAHQESHNKNSVA | DLSVRGS | QQYDRLPLS |
| 1.9 nM | 6 of 6 | 0 of 18 | KSSQSFLYESRNKNSVA | GASTRES | QNYHRLTLS |
| no signal | 0 of 6 | 0 of 18 | KSSQSVLYESRNKNQVA | WASTRES | QTYHRLPLS |
| 3.0 nM | 6 of 6 | 0 of 18 | KFMGSHLYESRMENSVA | NASQRES | QQYHRLPLS |
| 410 pM | 6 of 6 | 0 of 18 | KMSQSELYESRNKNSVA | NGSTRES | QQYHRLPLS |
| 3.2 µM | 1 of 6 | 0 of 18 | KMSGNLTDQENIKHSIA | EQVLAME | QQYQKLPLD |
| 50 nM | 1 of 6 | 0 of 18 | FFDFQMLEWQYDANNIA | GATLSIE | QQYGRLPLT |
| 350 nM | 1 of 6 | 0 of 18 | KIQHLTYFENEGEWSVA | DANTSVL | QDYFRLPLS |
| 16 nM | 6 of 6 | 1 of 18 | NVHALMNISSEFQNSIA | DSECRDA | QQYFRLPLS |
| 55 nM | 6 of 6 | 1 of 18 | KLSASQLYWSRNFNSVA | QASTRET | QQYHRLPLS |
| 29 nM | 6 of 6 | 3 of 18 | KINERMRSGENSQHSIA | NATEIVH | QQYHNLPLG |
| 1.8 nM | 6 of 6 | 1 of 18 | KSSQSVLYESENKNSVA | KASTRES | QQYMRLPLS |
| 630 pM | 6 of 6 | 0 of 18 | KLSQSQLYESRNKNSVA | NASYRLS | QQYHRLPLS |
| 600 nM | 3 of 6 | 0 of 18 | QISQSVGMTSRNKNSVA | ENSTRED | QQYDRLPLS |
| no signal | 0 of 6 | 1 of 18 | KSSQSVLYESRNKNSVA | AASTRES | QQYHRLELS |
| 4.1 nM | 6 of 6 | 2 of 18 | KLGASTRFESSNKASIA | DNSTRES | QQYHRLPLS |
| 150 nM | 1 of 6 | 0 of 18 | IVSQLMLWGYHAKNSIA | EAQMRLN | QQYDRLPLF |
| 200 nM | 3 of 6 | 0 of 18 | TLGQVTMQLMVNKNSVA | DANTSED | QQYDRLPLS |
| 25 nM | 6 of 6 | 0 of 18 | KLQNFSQEDNKMWNNIA | ETTMVHT | QQYMTLPLM |
| 660 pM | 6 of 6 | 0 of 18 | ALNQKGFQLSGMRDSIA | HSDTRLA | QQYYRLPLA |
| 880 pM | 6 of 6 | 2 of 18 | KVEQSHLYESRNKNSVA | QASTRES | QQYHRLPLS |
| 2.5 nM | 6 of 6 | 0 of 18 | KFSNSVYMESRNKNSVA | WASTRES | QQYHRLPLS |

From the list, the first 4 with no signal in any replicate:

CDR-L1	CDR-L2	CDR-L3	apparent Kd	seen in	control signals
KSSQSVLYEYRNKNSVA	WASTRIS	QQYHRSPLS	no signal	0 of 6	0 of 18
KSSQSVLYESRNKNSVA	YASTNES	QQYHKLPLS	no signal	0 of 6	0 of 18
SFDLTKSGMENEQYSIA	ERNELMT	QDYHRLPLA	no signal	0 of 6	1 of 18
FLAMALDQDGLIKNNIA	QDNLLEN	QQYERLPLG	no signal	0 of 6	0 of 18

The authors averaged sequences with at least three values out of six and counted those with two or fewer as poor binders. Three control strains display no target. For all light chain designs, 4% of the pairings with them gave a signal, with a median of 430 nM and one signal in twenty below 38 nM, so weak values seen in few replicates may be background. For each scFv, signals with the empty controls are counted beside the result. The range of this assay differs from that of the first round, and the authors advise against merging the two. Some sequences occur more than once in the pool; their replicates are pooled.